Source: PubChem BioAssay AID2058 (Sanford-Burnham Center for Chemical Genomics, 2009)
The entries are a selection whose mix differs from that of the whole data set. Results with a measured potency or affinity are listed apart. Some results for these compounds are left out of this collection, so the calls shown say nothing about other tests. Active and inactive are the calls of the source.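 How the source made its calls: active means inhibition of at least 50% with at least 30 cells and total cytoplasm GFP at most 10,000,000; inconclusive means under 30 cells or total GFP of 10,000,000 plus; inactive means the rest.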

The chains behind the UniProt entries cited, without tags or fusion partners.
UniProt Q9HC97, whole entry: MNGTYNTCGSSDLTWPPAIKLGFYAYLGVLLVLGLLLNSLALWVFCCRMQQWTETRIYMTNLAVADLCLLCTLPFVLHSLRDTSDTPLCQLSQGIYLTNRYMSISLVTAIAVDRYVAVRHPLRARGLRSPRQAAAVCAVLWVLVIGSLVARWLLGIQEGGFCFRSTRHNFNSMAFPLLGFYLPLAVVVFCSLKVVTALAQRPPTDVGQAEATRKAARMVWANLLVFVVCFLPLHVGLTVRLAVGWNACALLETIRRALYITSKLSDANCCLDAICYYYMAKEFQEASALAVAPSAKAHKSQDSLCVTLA

What follows are molecules tested against G-protein coupled receptor 35 (Homo sapiens) (UniProt Q9HC97) (assay: GPR35 antagonists blocking zaprinast-driven arrestin recruitment, primary screen, imaging, U2OS, beta-arrestin-GFP, zaprinast agonist (AID 2058)). Details: U2OS GPR35 beta-arrestin-GFP translocation imaging, zaprinast antagonism; at 10 µM; stronger effect = higher value.
In the case of `Cc1ccccc1C(=O)NCC1(N2CCCCC2)CCCCC1`, the inhibition is reported as inactive: 0.4%. For `CN(C)C1CCCC1OC(=O)C(O)(c1ccccc1)c1ccccc1` (centres undefined), the inhibition was inactive: -6.5%. `CN(C)c1ccc(C(=O)NCC2(N(C)C)CCCCC2)cc1` was tested, and the inhibition was inactive: -1.8%. In the case of `C=CCN1CCN(CCOC(=O)C(O)(c2ccccc2)c2ccccc2)CC1`, the inhibition is reported as inactive: 4.9%. In the case of `O=C(NCC1(N2CCCCC2)CCCCC1)c1cc(F)c(F)cc1Cl`, the inhibition is reported as inactive: 11.9%. With `Cc1cc(C(=O)NCC2(N3CCCCC3)CCCCC2)ccc1[N+](=O)[O-]` the inhibition was inactive: 3.6%. For `CCN1CCCC(OC(=O)C2(O)c3ccccc3C=Cc3ccccc32)C1` (centres undefined), the inhibition was inactive: 9.9%. In the case of `O=C(NCC1(N2CCCCC2)CCCCC1)c1cccc(Br)c1`, the inhibition is reported as inactive: -13.7%. With `COc1ccc(C(=O)NCC2(N(C)C)CCCCC2)cc1` the inhibition was inactive: 16.1%. In the case of `O=C(NCC1(N2CCCCC2)CCCCC1)c1cc([N+](=O)[O-])ccc1Cl`, the inhibition is reported as inactive: -5.9%. For `CN1[C@@H]2CC[C@H]1CC(OC(=O)C(O)(c1ccccc1)c1ccccc1)C2` (some centres undefined), the inhibition was inactive: -9.4%. With `CC(C)N1C(=O)CC2(CCN(CCOC(=O)C(O)(c3ccccc3)c3ccccc3)CC2)C1=O` the inhibition was inactive: -5.4%. With `CCN(CC)CC(C)C(C)OC(=O)C(O)(c1ccccc1)c1ccccc1` (centres undefined) the inhibition was inactive: -8.7%. `COc1cc(SC)ccc1C(=O)NCC1(N(C)C)CCCCC1` was tested, and the inhibition was inactive: 3.1%. `Cc1ccc(C(=O)NCC2(N3CCCCC3)CCCCC2)cc1` was tested, and the inhibition was inactive: -4.7%. For `O=C(OC1CN2CCC1CC2)C(CO)(c1ccccc1)c1ccccc1` (centres undefined), the inhibition was inactive: -11.3%. `COc1ccc(Br)c(C(=O)NCC2(N3CCCCC3)CCCCC2)c1` was tested, and the inhibition was inactive: 1.8%. With `CN(C)c1cccc(C(=O)NCC2(N(C)C)CCCCC2)c1` the inhibition was inactive: 3.6%. For `CC(C)Oc1ccc(C(=O)NCC2(N(C)C)CCCCC2)cc1`, the inhibition was inactive: -3.4%. With `CN(C)C1(CNC(=O)c2ccc(Br)cc2)CCCCC1` the inhibition was inactive: 9.6%. In the case of `COc1cc(C(=O)NCC2(N(C)C)CCCCC2)c([N+](=O)[O-])cc1OC`, the inhibition is reported as inactive: 2.1%. For `COc1cccc(C(=O)NCC2(N3CCCCC3)CCCCC2)c1`, the inhibition was inactive: -4.6%. `COc1ccc(Cl)cc1C(=O)NCC1(N(C)C)CCCCC1` was tested, and the inhibition was inactive: 16.3%. In the case of `O=C(NCC1(N2CCCCC2)CCCCC1)c1cccc(Cl)c1`, the inhibition is reported as inactive: -20.5%.
